Legend:
[1] = test system: Colo-205 (colorectal cancer) xenograft model; experiment: In vivo efficacy/synergy study, relative tumor volume in Colo-205 xenograft model
Method: (§1) An in vivo efficacy study was conducted with olaparib alone as a single agent. […] Groups of animals (n=5) were dosed with olaparib (i.p.) 5 days on, 2 days off using 10-100 mg/kg doses.
(§2) Combination groups (n=5) were dosed with olaparib (i.p.) 5 days on, 2 days off, using a 50 mg/kg dose for 28 days.

[2] = test system: A549 (NSCLC) xenograft model; experiment: In vivo efficacy/synergy study, relative tumor volume in A549 xenograft model; details: Example 1, dosing schedule 1 (FIG. 1): [225Ac]-FPI-1434 200 nCi; BAY-1895344 i.p. 20 mg/kg, 2 days on, 5 days off for 28 days, first dose 24 hours after [225Ac]-FPI-1434; evaluated up to 28 days
Method: as §1, §2

In the case of `C[C@@H]1COCCN1c1cc(-c2ccnn2C)c2ccnc(-c3ccn[nH]3)c2n1` [BAY-1895344], the Relative tumor volume ([1]; Example 1, dosing schedule 1 (FIG. 1): [225Ac]-FPI-1434 50 nCi, BAY-1895344 i.p. 20 mg/kg, 2 days on, 5 days off for 28 days, first dose 24 hours after [225Ac]-FPI-1434, evaluated up to 28 days) is reported as “did not demonstrate any reduction in reduction in tumor volume over time relative to Vehicle controls”, the Relative tumor volume ([1]; Example 2, dosing schedule 2 (FIG. 3): [225Ac]-FPI-1434 50 nCi, BAY-1895344 three times a week starting at 40 mg/kg, gradually reduced to 20 mg/kg, first dose 24 hours after FPI-1434, up to 28 days) is reported as “demonstrated some reduction in tumor volume over time” and the Relative tumor volume [2] is reported as “did not demonstrate any reduction in reduction in tumor volume over time relative to Vehicle controls”.
